Measurements published in patent US6413998B1, “Compositions and methods for treating bone deficit conditions” (Osteoscreen, Inc., priority 1995, dated 2002).

System: TMC-23 cells
Test: Alkaline phosphatase (ALP) activity in chondrogenic cell line TMC-23
Format: cell-based, mouse
Details: compared to vehicle control
Description: Compounds 59-008, 59-0102 and 50-0197 were assayed for effects on the differentiation of cartilage cells, as compared to the action of recombinant human BMP-2. Briefly, a mouse clonal chondrogenic cell line, TMC-23, was isolated and cloned from costal cartilage of transgenic mice containing the BMP-2 gene control region driving SV-40 large T-antigen, generated as described in Ghosh-Choudhury el al Endocrinology 137:331-39, 1996.
For measurement of alkaline phosphatase (ALP) activity, the technique of LF Bonewald et al. J Biol Chem (1992) 267:8943-49, was employed. Briefly, TMC-23 cells were plated in 96 well microtiter plates in DMEM containing 10% FCS at 4×10^3 cells/well. Two days after plating, the cells were confluent and the medium was replaced with fresh medium containing 10% FCS and different concentrations of compounds or recombinant BMP-2. After an additional 2 or 5 days incubation, the plates were washed twice with PBS, and then lysing solution (0.05% Triton X-100) was added (100 μl/well). The cells were lysed by three freeze-thaw cycles of −70° C. (30 min), followed by 37° C. (30 min with shaking). Twenty microliters of cell lysates were assayed with 80 μl of 5 mM p-nitrophenol phosphate in 1.5 M 2-amino-2-methyl-propanol buffer, pH 10.3 (Sigma ALP kit, Sigma Chemical Co., St. Louis, Mo.) for 10 min at 37° C. The reaction was stopped by the addition of 100 μl of 0.5 M NaOH. The spectrophotometric absorbance at 405 nm was compared to that of p-nitrophenol standards to estimate ALP activity in the samples. The protein content of the cell lysates was determined by the Bio-Rad protein assay kit (Bio-Rad, Hercules, Calif.). Specific activity was calculated using these two parameters.

Substance: Recombinant BMP2: recombinant human bone morphogenetic protein 2, comparator in the chondrogenic assay
- induction of ALP levels (10 ng/ml): ~1.5 fold
- induction of ALP levels (50 ng/ml): ~4 fold
- induction of ALP levels (100 ng/ml): approximately 10 fold
